ChEMBL document CHEMBL6115036, “Exploration of membrane-active cephalosporin derivatives as potent antibacterial agents against Staphylococcus aureus biofilms and persisters” (Eur J Med Chem, 2025)
Converted amounts (≈) assume the structure as drawn.

How the values were obtained:
Staphylococcus aureus = test: Antimicrobial activity against Staphylococcus aureus incubated for 16 to 18 hrs by broth dilution assay; type: functional; conditions: time 16-18 hrs
Escherichia coli = test: Antimicrobial activity against Escherichia coli incubated for 16 to 18 hrs by broth dilution assay; type: functional; conditions: time 16-18 hrs

SMILES: CC[C@H](C)[C@H](NC(=O)CN)C(=O)NCC(=O)N[C@@H](C)C(=O)N[C@H](C(=O)N[C@@H](CC(C)C)C(=O)N[C@@H](CCCCN)C(=O)N[C@H](C(=O)N[C@@H](CC(C)C)C(=O)N[C@H](C(=O)N[C@H](C(=O)NCC(=O)N[C@@H](CC(C)C)C(=O)N1CCC[C@H]1C(=O)N[C@@H](C)C(=O)N[C@@H](CC(C)C)C(=O)N[C@H](C(=O)N[C@@H](CO)C(=O)N[C@@H](Cc1c[nH]c2ccccc12)C(=O)N[C@H](C(=O)N[C@@H](CCCCN)C(=O)N[C@@H](CCCNC(=N)N)C(=O)N[C@@H](CCCCN)C(=O)N[C@@H](CCCNC(=N)N)C(=O)N[C@@H](CCC(N)=O)C(=O)N[C@@H](CCC(N)=O)C(N)=O)[C@@H](C)CC)[C@@H](C)CC)[C@@H](C)O)[C@@H](C)O)C(C)C)C(C)C [MELITTIN]
- MIC (Staphylococcus aureus): 4 µg/mL (≈ 1.41 µM)
- MIC (Escherichia coli): 4 µg/mL (≈ 1.41 µM)
